Like-named read-outs stand apart in the source and are kept apart here.
Assays:
JAK1 [1] = target: T1, JAK1 (Homo sapiens, UniProt P23458); conditions: read-out: IC50 JAK1
JAK3 = target: T2, JAK3 (Homo sapiens, UniProt P52333); conditions: read-out: IC50 JAK3
T2 sequence (P52333 1-1124): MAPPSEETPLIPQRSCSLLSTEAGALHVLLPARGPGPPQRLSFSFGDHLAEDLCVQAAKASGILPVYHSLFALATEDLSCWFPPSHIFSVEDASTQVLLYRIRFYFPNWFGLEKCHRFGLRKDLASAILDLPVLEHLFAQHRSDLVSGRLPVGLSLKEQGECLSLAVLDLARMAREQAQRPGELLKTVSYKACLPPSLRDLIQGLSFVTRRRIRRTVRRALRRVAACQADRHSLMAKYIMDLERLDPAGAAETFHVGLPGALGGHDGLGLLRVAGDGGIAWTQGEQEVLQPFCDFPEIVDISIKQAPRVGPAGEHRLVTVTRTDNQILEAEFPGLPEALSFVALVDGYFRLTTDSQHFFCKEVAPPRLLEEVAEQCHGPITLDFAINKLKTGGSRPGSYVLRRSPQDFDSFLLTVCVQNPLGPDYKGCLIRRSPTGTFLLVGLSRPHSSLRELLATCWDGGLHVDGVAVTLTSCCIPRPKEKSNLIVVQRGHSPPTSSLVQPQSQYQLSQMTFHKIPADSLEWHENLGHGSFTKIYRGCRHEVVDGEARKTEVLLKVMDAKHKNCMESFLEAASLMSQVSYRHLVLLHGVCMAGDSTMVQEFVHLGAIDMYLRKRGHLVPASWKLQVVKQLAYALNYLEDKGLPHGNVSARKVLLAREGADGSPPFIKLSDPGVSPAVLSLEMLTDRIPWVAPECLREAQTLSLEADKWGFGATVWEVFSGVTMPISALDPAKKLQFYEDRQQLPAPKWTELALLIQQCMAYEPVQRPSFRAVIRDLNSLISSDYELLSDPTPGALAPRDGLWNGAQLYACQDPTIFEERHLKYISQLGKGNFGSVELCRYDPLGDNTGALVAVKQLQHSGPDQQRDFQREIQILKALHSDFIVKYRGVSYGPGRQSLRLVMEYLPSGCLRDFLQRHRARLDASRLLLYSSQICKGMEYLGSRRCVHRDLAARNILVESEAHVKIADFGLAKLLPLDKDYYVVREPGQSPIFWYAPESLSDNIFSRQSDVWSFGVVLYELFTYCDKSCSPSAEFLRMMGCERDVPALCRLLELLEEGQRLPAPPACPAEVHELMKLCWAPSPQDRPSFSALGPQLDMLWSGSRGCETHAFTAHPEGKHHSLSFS

The chains behind the UniProt entries cited, without tags or fusion partners. Where a name states a change or a piece, a line headed by the entry shows the natural chain unless it says otherwise.
UniProt P23458: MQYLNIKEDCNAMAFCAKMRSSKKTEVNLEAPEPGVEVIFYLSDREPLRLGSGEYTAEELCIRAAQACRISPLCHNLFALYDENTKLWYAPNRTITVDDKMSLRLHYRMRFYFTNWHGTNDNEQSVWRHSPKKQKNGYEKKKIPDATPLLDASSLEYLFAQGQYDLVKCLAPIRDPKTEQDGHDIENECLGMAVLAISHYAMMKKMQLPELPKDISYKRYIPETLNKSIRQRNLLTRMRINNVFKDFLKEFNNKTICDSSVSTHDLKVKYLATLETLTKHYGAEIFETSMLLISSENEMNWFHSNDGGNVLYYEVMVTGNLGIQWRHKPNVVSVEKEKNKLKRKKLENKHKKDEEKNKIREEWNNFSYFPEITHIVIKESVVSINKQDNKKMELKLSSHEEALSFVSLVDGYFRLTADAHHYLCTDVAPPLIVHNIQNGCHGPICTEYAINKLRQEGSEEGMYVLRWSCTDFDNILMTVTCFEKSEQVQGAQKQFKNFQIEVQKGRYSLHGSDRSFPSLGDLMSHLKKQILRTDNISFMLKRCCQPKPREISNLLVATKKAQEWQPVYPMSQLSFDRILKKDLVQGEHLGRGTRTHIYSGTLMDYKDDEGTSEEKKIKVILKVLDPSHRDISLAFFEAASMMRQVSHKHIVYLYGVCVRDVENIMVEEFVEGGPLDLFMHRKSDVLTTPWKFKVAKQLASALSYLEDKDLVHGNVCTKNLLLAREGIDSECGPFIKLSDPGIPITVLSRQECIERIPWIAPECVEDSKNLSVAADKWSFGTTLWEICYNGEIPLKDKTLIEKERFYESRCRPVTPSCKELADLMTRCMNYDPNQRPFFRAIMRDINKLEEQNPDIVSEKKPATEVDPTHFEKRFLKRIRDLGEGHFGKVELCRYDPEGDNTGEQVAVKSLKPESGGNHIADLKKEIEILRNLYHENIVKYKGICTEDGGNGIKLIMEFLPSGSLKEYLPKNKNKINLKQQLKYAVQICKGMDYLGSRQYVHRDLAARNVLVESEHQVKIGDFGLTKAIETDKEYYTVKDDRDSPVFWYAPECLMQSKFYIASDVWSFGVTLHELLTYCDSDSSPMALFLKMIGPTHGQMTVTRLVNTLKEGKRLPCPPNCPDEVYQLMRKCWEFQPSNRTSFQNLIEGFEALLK
UniProt P29597: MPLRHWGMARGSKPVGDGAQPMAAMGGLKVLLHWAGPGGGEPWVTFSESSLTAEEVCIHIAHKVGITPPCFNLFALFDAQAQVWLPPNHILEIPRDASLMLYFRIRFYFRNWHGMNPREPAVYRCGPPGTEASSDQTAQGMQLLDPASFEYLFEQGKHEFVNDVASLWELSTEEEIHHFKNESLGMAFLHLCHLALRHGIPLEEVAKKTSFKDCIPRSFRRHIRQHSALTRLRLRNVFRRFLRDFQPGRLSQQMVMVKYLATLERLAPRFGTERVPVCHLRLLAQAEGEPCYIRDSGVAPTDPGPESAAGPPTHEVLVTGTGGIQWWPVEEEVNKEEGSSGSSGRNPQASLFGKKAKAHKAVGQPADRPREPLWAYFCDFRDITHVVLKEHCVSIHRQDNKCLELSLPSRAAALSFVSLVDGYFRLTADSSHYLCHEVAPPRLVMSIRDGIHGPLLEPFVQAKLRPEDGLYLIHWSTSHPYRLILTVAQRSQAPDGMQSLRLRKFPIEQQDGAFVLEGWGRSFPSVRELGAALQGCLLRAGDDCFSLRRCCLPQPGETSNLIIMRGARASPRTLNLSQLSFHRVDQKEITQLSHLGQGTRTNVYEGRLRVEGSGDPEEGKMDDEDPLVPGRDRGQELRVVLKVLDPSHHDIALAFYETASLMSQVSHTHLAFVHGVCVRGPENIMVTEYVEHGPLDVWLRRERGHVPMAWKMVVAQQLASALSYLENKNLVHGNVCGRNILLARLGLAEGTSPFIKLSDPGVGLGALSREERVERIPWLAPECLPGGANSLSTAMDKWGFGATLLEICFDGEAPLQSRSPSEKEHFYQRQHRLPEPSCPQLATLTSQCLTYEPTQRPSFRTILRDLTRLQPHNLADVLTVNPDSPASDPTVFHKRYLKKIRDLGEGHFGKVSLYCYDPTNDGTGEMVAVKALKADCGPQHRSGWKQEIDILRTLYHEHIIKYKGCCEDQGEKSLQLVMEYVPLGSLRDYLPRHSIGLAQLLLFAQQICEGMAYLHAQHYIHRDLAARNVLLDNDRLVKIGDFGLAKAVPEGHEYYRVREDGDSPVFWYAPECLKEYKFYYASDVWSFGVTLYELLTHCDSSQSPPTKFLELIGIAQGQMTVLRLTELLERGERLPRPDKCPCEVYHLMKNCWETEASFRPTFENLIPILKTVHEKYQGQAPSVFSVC

JAK1 [2] = target: T1, JAK1; conditions: read-out: GI50 JAK1; Ba/F3 cell-based
JAK1 [3] = target: T1, JAK1; test: biochemical
TYK2 = TYK2 (Homo sapiens, UniProt P29597); test: biochemical

| Compound | IC50 (JAK1 [3]) [nM] | IC50 (TYK2) [nM] | other results |
| --- | --- | --- | --- |
| 4-(42R,4R)-1-(4-Chlorobenzyl)-2-methylpiperidin-4-yl)amino)-N-methyl-1H-pyrrolo[2,3-b]pyridine-5-carboxamide [56b] |  |  | IC50 (JAK1 [1]): 181 nM |
| 4-(42S,4S)-1-(4-Chlorobenzyl)-2-methylpiperidin-4-yl)amino)-N-methyl-1H-pyrrolo[2,3-b]pyridine-5-carboxamide [56a] |  |  | IC50 (JAK1 [1]): 0.552 nM |
| 4-(42S,4S)-1-(4-trifluoromethyl)-2-methylpiperidin-4-yl)amino)-N-methyl-1H-pyrrolo[2,3-b]pyridine-5-carboxamide [57a] |  |  | IC50 (JAK1 [1]): 0.017 nM; IC50 (JAK3): 9.24 nM; GI50 (JAK1 [2]): 1.45 nM |
| CNC(=O)c1cnc2[nH]ccc2c1NC1CCN(Cc2ccc(Cl)cn2)C(C)C1 (racemic) [47a, 4-((cis-14(5-Chloropyridin-2-yl)methyl)-2-methylpiperidin-4-yl)amino)-N-methyl-1H-pyrrolo[2,3-b]pyridine-5-carboxamide] | 0.734 | 40.3 |  |
| CNC(=O)c1cnc2[nH]ccc2c1N[C@@H]1CCN(Cc2cccc(C#N)n2)[C@H](C)C1 (racemic) [47b] | 3.75 | 16.6 |  |
| CNC(=O)c1cnc2[nH]ccc2c1N[C@@H]1CCN(Cc2ccc(C#N)cn2)[C@H](C)C1 (racemic) [47c] | 6.72 | 44.9 |  |
| CNC(=O)c1cnc2[nH]ccc2c1N[C@@H]1CCN(Cc2ccc(C(F)(F)F)cn2)[C@H](C)C1 (racemic) [47d] | 1.94 | 57.2 |  |
| CNC(=O)c1cnc2[nH]ccc2c1N[C@@H]1CCN(Cc2ccc(Cl)nc2)[C@H](C)C1 (racemic) [48a] | 3.31 | 31.6 |  |
| CNC(=O)c1cnc2[nH]ccc2c1N[C@@H]1CCN(Cc2ccc(C#N)nc2)[C@H](C)C1 (racemic) [48b] |  | 13.1 |  |
| CNC(=O)c1cnc2[nH]ccc2c1N[C@H]1CCN(Cc2ccccc2F)[C@@H](C)C1 (relative stereo) [46a, 4-((cis-1-(2-Fluorobenzyl)-2-methylpiperidin-4-yl)amino)-N-methyl-1H-pyrrolo[2,3-b]pyridine-5-carboxamide] | 13 | 38.7 |  |
| CNC(=O)c1cnc2[nH]ccc2c1N[C@H]1CCN(Cc2cccc(F)c2)[C@@H](C)C1 (relative stereo) [46b, 4-((cis-1-(3-Fluorobenzyl)-2-methylpiperidin-4-yl)amino)-N-methyl-1H-pyrrolo[2,3-b]pyridine-5-carboxamide] | 21.2 | 75.9 |  |
| CNC(=O)c1cnc2[nH]ccc2c1N[C@H]1CCN(Cc2ccc(F)cc2)[C@@H](C)C1 (relative stereo) [46c, 4-((cis-1-(4-Fluorobenzyl)-2-methylpiperidin-4-yl)amino)-N-methyl-1H-pyrrolo[2,3-b]pyridine-5-carboxamide] | 3.44 | 8.42 |  |
| CNC(=O)c1cnc2[nH]ccc2c1N[C@H]1CCN(Cc2ccc(C(F)(F)F)nc2)[C@@H](C)C1 (relative stereo) [48c, N-Methyl-4-((cis-2-methyl-1-((6-(trifluoromethyl)pyridin-3-yl)methyl)piperidin-4-yl)amino)-1H-pyrrolo[2,3-b]pyridine-5-carboxamide] | 3.65 | 74.9 |  |
| CNC(=O)c1cnc2[nH]ccc2c1NC1CCN(Cc2cccc(OC)c2)CC1(F)F (stereo not shown) [45d] | 365 |  |  |
| CNC(=O)c1cnc2[nH]ccc2c1NC1CCN(Cc2ccc(OC)cc2)CC1(F)F (stereo not shown) [45e] | 118 |  |  |
| CNC(=O)c1cnc2[nH]ccc2c1NC1CCN(Cc2cccc(C#N)c2)CC1(F)F (stereo not shown) [45f] | 205 |  |  |
| CNC(=O)c1cnc2[nH]ccc2c1NC1CCN(Cc2ccc(C#N)cc2)CC1(F)F (stereo not shown) [45g] | 252 |  |  |
| CNC(=O)c1cnc2[nH]ccc2c1NC1CCN(Cc2ccccc2)C(C)(C)C1 (stereo not shown) [50a, 4-((1-Benzyl-2,2-dimethylpiperidin-4-yl)amino)-N-methyl-1H-pyrrolo[2,3-b]pyridine-5-carboxamide] | 54.7 |  |  |
| CNC(=O)c1cnc2[nH]ccc2c1NC1CCN(Cc2cccc(Cl)c2)C(C)(C)C1 (stereo not shown) [50b, 4-((1-(3-Chlorobenzyl)-2,2-dimethylpiperidin-4-yl)amino)-N-methyl-1H-pyrrolo[2,3-b]pyridine-5-carboxamide] | 17.1 |  |  |
| CNC(=O)c1cnc2[nH]ccc2c1NC1CCN(Cc2ccc(Cl)cc2)C(C)(C)C1 (stereo not shown) [50c] | 125 |  |  |
